Assay results as given in publication PMC9412555, “Benzothiazole Derivatives Endowed with Antiproliferative Activity in Paraganglioma and Pancreatic Cancer Cells: Structure–Activity Relationship Studies and Target Prediction Analysis” (Pharmaceuticals, 2022).

Tested on: HFF-1
Test: MTT cell viability assay, normal fibroblasts HFF-1
Format: cell-based, human
Settings: HFF-1, GEM 10 µM, 72 h
Procedure: Compounds 4a–p were submitted to a preliminary MTT assay at a one-point screening concentration of 75 μM for 72 h, including 2b as a reference compound (Figure 3). […] The presence of the electron-donating methoxy group decreased the activity of 2b, in both the para and meta positions. […] Specifically, these compounds, namely 4d, 4e, 4f, 4h, 4i, 4j, 4k, 4l, and 4m, were tested at concentrations of 3, 6, 12 and 24 µM for 72 h. In addition, the nine compounds, together with 2b, were tested against human fibroblasts HFF-1, in order to evaluate their selectivity against tumor cells, as compared to normal cells. Effects on cancer or normal cell viability were extrapolated from concentration–response curves and are expressed as IC50 values in Table 2.
Pancreatic cancer (AsPC-1, BxPC-3, and Capan-2), paraganglioma (PTJ86i and PTJ64i) and normal fibroblast (HFF-1) cell lines were cultured as previously described. All compounds were dissolved in DMSO (stock solutions) and then diluted in culture media to the final working concentrations. […]
IC50 values were extrapolated from concentration–response curves and calculated using the CompuSyn software. The interactions between compound 4l and gemcitabine were assessed by calculating the CI values using the CompuSyn software. […] SI values were calculated as previously described. […]

`Nc1ccn([C@@H]2O[C@H](CO)[C@@H](O)C2(F)F)c(=O)n1` [GEM, gemcitabine, reference compound] was tested, and the “Inhibition Rate of Cell Viability” value was 26.27%.
